In ChEMBL document CHEMBL4387741, “Optimization of novel reversible Bruton's tyrosine kinase inhibitors identified using Tethering-fragment-based screens” (Bioorg Med Chem, 2019) one finds IC50 data, which are given here for one compound.

By UniProt entry, the sequences of proteins in these tests, tags left out. Where a name states a change or a piece, a line headed by the entry shows the natural chain unless it says otherwise.
UniProt Q06187: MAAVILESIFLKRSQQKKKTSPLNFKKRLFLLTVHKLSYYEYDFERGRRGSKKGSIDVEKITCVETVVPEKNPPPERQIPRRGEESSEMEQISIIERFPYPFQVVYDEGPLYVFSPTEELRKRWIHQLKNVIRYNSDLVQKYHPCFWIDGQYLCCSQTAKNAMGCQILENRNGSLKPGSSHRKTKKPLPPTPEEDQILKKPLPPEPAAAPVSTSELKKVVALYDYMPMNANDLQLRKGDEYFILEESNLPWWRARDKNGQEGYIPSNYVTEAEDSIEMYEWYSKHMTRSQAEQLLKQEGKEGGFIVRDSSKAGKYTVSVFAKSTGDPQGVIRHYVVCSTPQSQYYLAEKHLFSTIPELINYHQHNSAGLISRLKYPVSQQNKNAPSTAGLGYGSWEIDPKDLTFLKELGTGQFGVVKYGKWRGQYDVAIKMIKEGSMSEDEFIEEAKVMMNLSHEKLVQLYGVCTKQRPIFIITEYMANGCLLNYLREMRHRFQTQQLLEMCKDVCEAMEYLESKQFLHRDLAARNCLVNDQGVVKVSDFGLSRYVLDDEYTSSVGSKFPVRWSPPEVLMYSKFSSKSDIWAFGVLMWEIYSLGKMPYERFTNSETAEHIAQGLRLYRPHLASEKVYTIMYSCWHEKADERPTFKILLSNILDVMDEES

The experiment has as its target Tyrosine-protein kinase BTK (Homo sapiens, UniProt Q06187). Description: biochemical.

One may read the IC50 as the concentration needed to halve the response being measured. Read a low IC50 as higher potency. Consider `O=C(Nc1cccc(C2CCCN(c3ncnc4[nH]ccc34)C2)c1)Nc1ccccc1Cl` (stereo unspecified), for which the IC50 was determined as 0.12 µM.
